Values quoted from earlier work as cited in patent US20020198219A1, “2-pyridinamine compositions and related methods” (priority 2000, published 2002).

Chains of the proteins cited; added tags and fusions are not shown.
UniProt Q16539, whole entry: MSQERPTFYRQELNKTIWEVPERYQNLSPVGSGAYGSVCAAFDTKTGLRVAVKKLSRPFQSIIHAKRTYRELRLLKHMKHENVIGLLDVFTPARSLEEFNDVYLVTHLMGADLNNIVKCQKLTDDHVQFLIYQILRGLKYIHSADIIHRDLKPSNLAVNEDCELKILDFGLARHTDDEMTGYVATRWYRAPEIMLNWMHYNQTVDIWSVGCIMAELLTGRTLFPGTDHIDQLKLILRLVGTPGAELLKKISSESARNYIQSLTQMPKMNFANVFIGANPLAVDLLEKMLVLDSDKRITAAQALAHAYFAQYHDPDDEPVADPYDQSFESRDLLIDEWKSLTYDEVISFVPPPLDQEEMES

Biological target: p38 kinase (Homo sapiens, UniProt Q16539)
Conditions: from the literature; cited from earlier work

For `CCc1[nH]c(-c2ccc(OC)cc2)nc1-c1ccncc1` [SB202474], the “Activity, p38 kinase” value is given as “Inactive”.
